Assay results published in publication PMC10537403 (Viruses, 2023).

Key:
[1] = tested on: canine distemper virus (CDV, strain Onderstepoort); settings: VERO/hSLAM cells, plaque assay 72 h
[2] = tested on: bovine viral diahrrea virus (BVDV, strain NADL ATCC VR-534); settings: MDBK cells, plaque assay
[3] = tested on: caprine herpesvirus type 1 (CpHV-1, reference Swiss strain E/CH); settings: read-out: IC50 against CpHV-1, virus pre-treatment; MDBK cells, virus pre-incubated with peptide 1 h, plaque assay 72 h
[4] = tested on: bovine herpesvirus type 1 (BoHV-1, Cooper strain); settings: read-out: IC50 against BoHV-1, virus pre-treatment; MDBK cells, virus pre-incubated with peptide 1 h, plaque assay 72 h
[5] = read-out: IC50 against CDV, co-treatment, peptide and virus (MOI 0.01) added simultaneously 1 h
[6] = read-out: IC50 against CDV, virus pre-treatment, peptide incubated with virus (MOI 0.1) 1 h at 37 °C, then added on cells
[7] = read-out: IC50 against BVDV, co-treatment, peptide and virus added simultaneously
[8] = read-out: IC50 against BVDV, virus pre-treatment, virus pre-incubated with peptide

SMILES	IC50 [1, 5] [µM]	IC50 [1, 6] [µM]	IC50 [2, 7] [µM]	IC50 [2, 8] [µM]	IC50 [3] [µM]	IC50 [4] [µM]
CC[C@H](C)[C@H](NC(=O)[C@H](C)N)C(=O)NCC(=O)N[C@@H](CO)C(=O)N[C@H](C(=O)N[C@@H](CC(C)C)C(=O)NCC(=O)N[C@@H](C)C(=O)N[C@@H](CC(C)C)C(=O)N[C@@H](C)C(=O)N[C@@H](CCCCN)C(=O)NCC(=O)N[C@@H](CC(C)C)C(=O)N1CCC[C@H]1C(=O)N[C@H](C(=O)N[C@@H](CC(C)C)C(=O)N[C@H](C(=O)N[C@@H](CO)C(=O)N[C@@H](Cc1c[nH]c2ccccc12)C(=O)N[C@H](C(=O)N[C@@H](CCCCN)C(=O)N[C@@H](CC(N)=O)C(=O)N[C@@H](CCCNC(=N)N)C(N)=O)[C@@H](C)CC)[C@@H](C)CC)[C@@H](C)O)[C@@H](C)CC [AR-23]	12.5	6.25	12.5	6.25	1.56	1.56
CC[C@H](C)[C@H](N)C(=O)N[C@@H](Cc1ccccc1)C(=O)NCC(=O)N[C@@H](C)C(=O)N[C@H](C(=O)N[C@@H](CC(C)C)C(=O)N1CCC[C@H]1C(=O)N[C@@H](CC(C)C)C(=O)N[C@@H](C)C(=O)N[C@@H](CC(C)C)C(=O)NCC(=O)N[C@@H](C)C(=O)N[C@@H](CC(C)C)C(=O)N[C@@H](CCCCN)C(=O)N[C@@H](CC(N)=O)C(=O)N[C@@H](CC(C)C)C(=O)N[C@H](C(=O)N[C@@H](CCCCN)C(N)=O)[C@@H](C)CC)[C@@H](C)CC [Hylin-a1]	12.5	6.25	12.5	6.25	3.12	3.12
CC[C@H](C)[C@H](NC(=O)[C@@H](N)CCCNC(=N)N)C(=O)NCC(=O)N[C@H](C(=O)N[C@@H](CC(C)C)C(=O)N[C@@H](CC(C)C)C(=O)N[C@@H](C)C(=O)N[C@@H](CCCNC(=N)N)C(=O)N[C@@H](CC(C)C)C(=O)N1CCC[C@H]1C(=O)N[C@@H](CCCCN)C(=O)N[C@@H](CC(C)C)C(=O)N[C@@H](Cc1ccccc1)C(=O)N[C@@H](CO)C(=O)N[C@@H](CC(C)C)C(=O)N[C@@H](Cc1ccccc1)C(=O)N[C@@H](CCCCN)C(=O)N[C@@H](CC(C)C)C(=O)N[C@@H](CCSC)C(=O)NCC(=O)N[C@@H](CCCCN)C(=O)N[C@@H](CCCCN)C(=O)N[C@H](C(N)=O)C(C)C)C(C)C [RV-23]	6.25	3.12	12.5	6.25	0.78	0.39

Read-outs that look alike come from different tables or passages of the source.
